Assay results taken from patent publication US20170044230A1 (USTAV ORGANICKE CHEMIE A BIOCHEMIE AV CR, V.V.I., priority 2014, published 2017).

Amino acid sequences for entries named in this document (tags omitted).
UniProt Q92847, whole entry: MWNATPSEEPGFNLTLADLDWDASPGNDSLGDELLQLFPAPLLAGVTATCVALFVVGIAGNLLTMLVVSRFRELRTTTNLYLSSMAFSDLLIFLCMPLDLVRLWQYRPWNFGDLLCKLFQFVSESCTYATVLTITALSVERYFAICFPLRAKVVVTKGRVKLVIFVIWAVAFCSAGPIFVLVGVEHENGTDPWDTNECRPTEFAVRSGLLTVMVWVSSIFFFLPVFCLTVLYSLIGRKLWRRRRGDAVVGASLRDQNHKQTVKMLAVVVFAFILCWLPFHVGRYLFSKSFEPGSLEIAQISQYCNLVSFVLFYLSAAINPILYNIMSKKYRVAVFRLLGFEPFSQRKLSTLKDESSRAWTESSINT

Molecular target: human GHS-R1a receptor (growth hormone secretagogue receptor 1a) (human) (UniProt Q92847)
Assay: saturation radioligand binding, membranes with human GHS-R1a

- Kd: 0.194 nM
Substance: ^125I-ghrelin (peptide)
